Results as given in ChEMBL document CHEMBL5505970 (J Med Chem, 2024).

Legend:
Jurkat [1] = experiment: Selectivity for ATR over MSK1 domain 1 in human Jurkat cell lysates in presence of biotinylated ADP by KiNativ profiling based mass spectrometry
Jurkat [2] = experiment: Selectivity for ATR over PKD2 in human Jurkat cell lysates in presence of biotinylated ADP by KiNativ profiling based mass spectrometry
Jurkat [3] = experiment: Selectivity for ATR over DLK in human Jurkat cell lysates in presence of biotinylated ADP by KiNativ profiling based mass spectrometry
Jurkat [4] = experiment: Selectivity for ATR over GSK3A in human Jurkat cell lysates in presence of biotinylated ADP by KiNativ profiling based mass spectrometry
Jurkat [5] = experiment: Selectivity for ATR over SYK in human Jurkat cell lysates in presence of biotinylated ADP by KiNativ profiling based mass spectrometry
Jurkat [6] = experiment: Selectivity for ATR over MAP3K3 in human Jurkat cell lysates in presence of biotinylated ADP by KiNativ profiling based mass spectrometry
Jurkat [7] = experiment: Selectivity for ATR over TLK1 in human Jurkat cell lysates in presence of biotinylated ADP by KiNativ profiling based mass spectrometry
Jurkat [8] = experiment: Selectivity for ATR over SBK in human Jurkat cell lysates in presence of biotinylated ADP by KiNativ profiling based mass spectrometry
Jurkat [9] = experiment: Selectivity for ATR over CHK2 in human Jurkat cell lysates in presence of biotinylated ADP by KiNativ profiling based mass spectrometry
Jurkat [10] = experiment: Selectivity for ATR over PKCh in human Jurkat cell lysates in presence of biotinylated ADP by KiNativ profiling based mass spectrometry
Jurkat [11] = experiment: Selectivity for ATR over LATS2 in human Jurkat cell lysates in presence of biotinylated ADP by KiNativ profiling based mass spectrometry
Jurkat [12] = experiment: Selectivity for ATR over MAP2K7 in human Jurkat cell lysates in presence of biotinylated ADP by KiNativ profiling based mass spectrometry
Jurkat [13] = experiment: Selectivity for ATR over Wnk1/2/4 in human Jurkat cell lysates in presence of biotinylated ADP by KiNativ profiling based mass spectrometry
Jurkat [14] = experiment: Selectivity for ATR over LKB1 in human Jurkat cell lysates in presence of biotinylated ADP by KiNativ profiling based mass spectrometry
Jurkat [15] = experiment: Selectivity for ATR over NDR1 in human Jurkat cell lysates in presence of biotinylated ADP by KiNativ profiling based mass spectrometry
Jurkat [16] = experiment: Selectivity for ATR over MST3 in human Jurkat cell lysates in presence of biotinylated ADP by KiNativ profiling based mass spectrometry
Jurkat [17] = experiment: Selectivity for ATR over MAP3K2 in human Jurkat cell lysates in presence of biotinylated ADP by KiNativ profiling based mass spectrometry
Jurkat [18] = experiment: Selectivity for ATR over JNK1/2/3 in human Jurkat cell lysates in presence of biotinylated ADP by KiNativ profiling based mass spectrometry
Jurkat [19] = experiment: Selectivity for ATR over MPSK1 in human Jurkat cell lysates in presence of biotinylated ADP by KiNativ profiling based mass spectrometry
Jurkat [20] = experiment: Selectivity for ATR over PI4KB in human Jurkat cell lysates in presence of biotinylated ADP by KiNativ profiling based mass spectrometry
Jurkat [21] = experiment: Selectivity for ATR over BARK1 in human Jurkat cell lysates in presence of biotinylated ADP by KiNativ profiling based mass spectrometry
Jurkat [22] = experiment: Selectivity for ATR over PI4K2B in human Jurkat cell lysates in presence of biotinylated ADP by KiNativ profiling based mass spectrometry
Jurkat [23] = experiment: Selectivity for ATR over JAK1 domain 1 in human Jurkat cell lysates in presence of biotinylated ADP by KiNativ profiling based mass spectrometry
Jurkat [24] = experiment: Selectivity for ATR over PIK3CA in human Jurkat cell lysates in presence of biotinylated ADP by KiNativ profiling based mass spectrometry
Jurkat [25] = experiment: Selectivity for ATR over AKT2/3 in human Jurkat cell lysates in presence of biotinylated ADP by KiNativ profiling based mass spectrometry
Jurkat [26] = experiment: Selectivity for ATR over CDK10 in human Jurkat cell lysates in presence of biotinylated ADP by KiNativ profiling based mass spectrometry
Jurkat [27] = experiment: Selectivity for ATR over MAP2K1 in human Jurkat cell lysates in presence of biotinylated ADP by KiNativ profiling based mass spectrometry
Jurkat [28] = experiment: Selectivity for ATR over MELK in human Jurkat cell lysates in presence of biotinylated ADP by KiNativ profiling based mass spectrometry
Jurkat [29] = experiment: Selectivity for ATR over SGK3 in human Jurkat cell lysates in presence of biotinylated ADP by KiNativ profiling based mass spectrometry
Jurkat [30] = experiment: Selectivity for ATR over CCRK in human Jurkat cell lysates in presence of biotinylated ADP by KiNativ profiling based mass spectrometry
Jurkat [31] = experiment: Selectivity for ATR over MAP4K3 in human Jurkat cell lysates in presence of biotinylated ADP by KiNativ profiling based mass spectrometry
Jurkat [32] = experiment: Selectivity for ATR over STLK6 in human Jurkat cell lysates in presence of biotinylated ADP by KiNativ profiling based mass spectrometry
Jurkat [33] = experiment: Selectivity for ATR over NEK8 in human Jurkat cell lysates in presence of biotinylated ADP by KiNativ profiling based mass spectrometry
Jurkat [34] = experiment: Selectivity for ATR over AMPKa1/a2 in human Jurkat cell lysates in presence of biotinylated ADP by KiNativ profiling based mass spectrometry
Jurkat [35] = experiment: Selectivity for ATR over TAO1/3 in human Jurkat cell lysates in presence of biotinylated ADP by KiNativ profiling based mass spectrometry
Jurkat [36] = experiment: Selectivity for ATR over NDR2 in human Jurkat cell lysates in presence of biotinylated ADP by KiNativ profiling based mass spectrometry
Jurkat [37] = experiment: Selectivity for ATR over CHK1 in human Jurkat cell lysates in presence of biotinylated ADP by KiNativ profiling based mass spectrometry
Jurkat [38] = experiment: Selectivity for ATR over PDK1 in human Jurkat cell lysates in presence of biotinylated ADP by KiNativ profiling based mass spectrometry
Jurkat [39] = experiment: Selectivity for ATR over BIKE in human Jurkat cell lysates in presence of biotinylated ADP by KiNativ profiling based mass spectrometry
Jurkat [40] = experiment: Selectivity for ATR over FYN/SRC/YES in human Jurkat cell lysates in presence of biotinylated ADP by KiNativ profiling based mass spectrometry
Jurkat [41] = experiment: Selectivity for ATR over RSK1 domain 1 in human Jurkat cell lysates in presence of biotinylated ADP by KiNativ profiling based mass spectrometry
Jurkat [42] = experiment: Selectivity for ATR over LCK in human Jurkat cell lysates in presence of biotinylated ADP by KiNativ profiling based mass spectrometry
Jurkat [43] = experiment: Selectivity for ATR over NEK7 in human Jurkat cell lysates in presence of biotinylated ADP by KiNativ profiling based mass spectrometry
Jurkat [44] = experiment: Selectivity for ATR over AKT1 in human Jurkat cell lysates in presence of biotinylated ADP by KiNativ profiling based mass spectrometry
Jurkat [45] = experiment: Selectivity for ATR over p38b in human Jurkat cell lysates in presence of biotinylated ADP by KiNativ profiling based mass spectrometry
Jurkat [46] = experiment: Selectivity for ATR over MAPKAPK2/3 in human Jurkat cell lysates in presence of biotinylated ADP by KiNativ profiling based mass spectrometry
Jurkat [47] = experiment: Selectivity for ATR over NLK in human Jurkat cell lysates in presence of biotinylated ADP by KiNativ profiling based mass spectrometry
Jurkat [48] = experiment: Selectivity for ATR over PKD3 in human Jurkat cell lysates in presence of biotinylated ADP by KiNativ profiling based mass spectrometry

Measured: Selectivity ratio

C[C@@H]1COCCN1c1cc([C@]2(O)C[C@H]3CC[C@@H](C2)O3)c2cnn(-c3cc[nH]n3)c2n1 [CAMONSERTIB]
10: all assays above
